Reference: ChEMBL document CHEMBL5096211, “Fluorophenylalkyl-substituted cyanoguanidine derivatives as bacteria-selective MATE transporter inhibitors for the treatment of antibiotic-resistant infections” (Bioorg Med Chem, 2022)

Target: T1, Multidrug and toxin extrusion protein 1 (Homo sapiens, UniProt Q96FL8)
T1 sequence (Q96FL8 whole entry): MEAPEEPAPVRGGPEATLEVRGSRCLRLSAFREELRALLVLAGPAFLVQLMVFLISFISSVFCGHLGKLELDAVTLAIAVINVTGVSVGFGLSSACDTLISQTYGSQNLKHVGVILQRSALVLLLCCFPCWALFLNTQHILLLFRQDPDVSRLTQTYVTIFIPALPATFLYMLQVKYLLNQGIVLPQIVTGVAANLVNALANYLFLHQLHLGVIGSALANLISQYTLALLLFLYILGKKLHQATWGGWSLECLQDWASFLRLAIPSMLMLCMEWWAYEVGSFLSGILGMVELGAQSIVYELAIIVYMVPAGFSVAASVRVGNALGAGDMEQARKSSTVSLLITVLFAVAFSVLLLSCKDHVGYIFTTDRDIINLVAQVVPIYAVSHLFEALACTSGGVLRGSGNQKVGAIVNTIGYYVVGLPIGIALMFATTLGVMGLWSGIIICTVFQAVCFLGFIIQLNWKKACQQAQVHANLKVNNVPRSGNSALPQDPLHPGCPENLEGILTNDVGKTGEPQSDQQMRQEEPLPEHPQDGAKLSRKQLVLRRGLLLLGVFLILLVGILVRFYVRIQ
Test: Inhibition of human MATE1
Format: toxicity

CN/C(=N/CCSCc1nc[nH]c1C)NC#N [CIMETIDINE]
IC50: 2200 nM
